Key:
Assay in all cases: microbe, parasite or virus in culture
[1] = test system: A/Puerto Rico/8/1934 (PR8; H1N1); conditions: Influenza A virus, MDCK
[2] = test system: A/Hong Kong/8/1968 (HK; H3N2); conditions: Influenza A virus, H3N2, MDCK
B/Lee/1940 (Lee) = conditions: Influenza B virus, MDCK

SMILES | EC50 [1] [nM] | EC50 [2] [nM] | EC50 (B/Lee/1940 (Lee)) [nM]
CCC(CC)O[C@@H]1C=C(C(=O)O)C[C@H](N=C(N2C(=O)[C@H]3CC=CC[C@H]3C2=O)N2C(=O)[C@H]3CC=CC[C@H]3C2=O)[C@H]1NC(C)=O [OSC-GCDI(Ce)] | 30 ± 10 | 20 ± 10 | 
CCC(CC)O[C@@H]1C=C(C(=O)O)C[C@H](N=C(N2C(=O)CC(C)C2=O)N2C(=O)CC(C)C2=O)[C@H]1NC(C)=O (stereo partly shown) [OSC-GCDI(M)] |  | 20 ± 10 | 5550 ± 1650
